Measurements taken from patent publication EP1991561B1, “BRANCHED MULTIMERIC PEPTIDES FOR TUMOR DIAGNOSIS AND THERAPY” (Universita' Degli Studi di Siena, priority 2006, dated 2007).

Test system: HT29 tumors
Conditions: 4.05 µmol/kg iv on days 0, 5, 10 and 15
Method: Female CD-1 nude mice (Charles River Laboratories Inc., Wilmington, MA) 6-7 weeks of age (mean weight of 25 g), were injected subcutaneously in the right flank with of 2 x 10^6 HT29 cells.
Tumor volumes were measured daily with a caliper using the following formula: Volume = length x width^2 x Π/6. The tumor volumes for each group were pooled to plot mean tumor growth curves. At the end of the experiment, the mice were sacrificed. Tumors were removed and weighed and the weights compared between treated and control mice.

tetrabranched NT(8-13)-PEG-Methotrexate [NT4(8-13)-MTX]
loss of body weight: less than 10%
